In US20240360082A1, “SUBSTITUTED PYRIDONE COMPOUNDS USEFUL TO TREAT ORTH[…]” (priority 2021, published 2024):
Where two headings read alike, the source gives them in different places.

Tested on: influenza virus (multiple flu strains)
Test: organism not typed
Settings: MDCK
[1] = read-out: NA Alaska H3N2, NA assay, Alaska H3N2 strain
[2] = read-out: NA CAL H1N1, NA assay, CAL H1N1 strain

Compound	IC50 [1] [nM]	IC50 [2] [nM]
NC(=O)c1cc(-c2ccc(OCc3ccnnc3)cc2)c(C(F)(F)F)[nH]c1=O [Example 84, 2-oxo-5-(4-(pyridazin-4-ylmethoxy)phenyl)-6-(trifluoromethyl)-1,2-dihydropyridine-3-carboxamide]	1000 to 5000	10000 to 25000
NC(=O)c1cc(-c2ccc(OCc3ccc4cn[nH]c4c3)cc2)c(C(F)(F)F)[nH]c1=O [Example 85, 5-(4-((1H-indazol-6-yl)methoxy)phenyl)-2-oxo-6-(trifluoromethyl)-1,2-dihydropyridine-3-carboxamide]	1000 to 5000	
NC(=O)c1cc(-c2ccc(OCc3ccc4cc[nH]c4c3)cc2)c(C(F)(F)F)[nH]c1=O [Example 86, 5-(4-((1H-indol-6-yl)methoxy)phenyl)-2-oxo-6-(trifluoromethyl)-1,2-dihydropyridine-3-carboxamide]	100 to 1000	10000 to 25000
NC(=O)c1cc(-c2ccc(OCc3ccc(C(F)(F)F)cc3)cc2)c(C(F)(F)F)[nH]c1=O [Example 87, 2-oxo-6-(trifluoromethyl)-5-(4-((4-(trifluoromethyl)benzyl)oxy)phenyl)-1,2-dihydropyridine-3-carboxamide]	100 to 1000	5000 to 10000
NC(=O)c1cc(-c2ccc(OCC3CNC(=O)C3)cc2)c(C(F)(F)F)[nH]c1=O (stereo not drawn) [Example 88, 2-oxo-5-(4-((5-oxopyrrolidin-3-yl)methoxy)phenyl)-6-(trifluoromethyl)-1,2-dihydropyridine-3-carboxamide]	5000 to 10000	
N#Cc1ccccc1COc1ccc(-c2cc(C(N)=O)c(=O)[nH]c2C(F)(F)F)cc1 [Example 89, 5-(4-((2-cyanobenzyl)oxy)phenyl)-2-oxo-6-(trifluoromethyl)-1,2-dihydropyridine-3-carboxamide]	100 to 1000	100 to 1000
NC(=O)c1cc(-c2ccc(OCc3ccn4nnnc4c3)cc2)c(C(F)(F)F)[nH]c1=O [Example 90, 2-oxo-5-(4-(tetrazolo[1,5-a]pyridin-7-ylmethoxy)phenyl)-6-(trifluoromethyl)-1,2-dihydropyridine-3-carboxamide]	1000 to 5000	10000 to 25000
NC(=O)c1cc(-c2ccc(OCc3ccn4ccnc4c3)cc2)c(C(F)(F)F)[nH]c1=O [Example 91, 5-(4-(imidazo[1,2-a]pyridin-7-ylmethoxy)phenyl)-2-oxo-6-(trifluoromethyl)-1,2-dihydropyridine-3-carboxamide]	1000 to 5000	
CN1CCCC(COc2ccc(-c3cc(C(N)=O)c(=O)[nH]c3C(F)(F)F)cc2)C1 (stereo not drawn) [Example 92, 5-(4-((1-methylpiperidin-3-yl)methoxy)phenyl)-2-oxo-6-(trifluoromethyl)-1,2-dihydropyridine-3-carboxamide]	1000 to 5000	5000 to 10000
NC(=O)c1cc(-c2ccc(OCc3ccc(F)c([N+](=O)[O-])c3)cc2)c(C(F)(F)F)[nH]c1=O [Example 93, 5-(4-((4-fluoro-3-nitrobenzyl)oxy)phenyl)-2-oxo-6-(trifluoromethyl)-1,2-dihydropyridine-3-carboxamide]	100 to 1000	100 to 1000
NC(=O)c1cc(-c2ccc(OCc3ccc4no[n+]([O-])c4c3)cc2)c(C(F)(F)F)[nH]c1=O [Example 94]	100 to 1000	100 to 1000
N#Cc1cncc(COc2ccc(-c3cc(C(N)=O)c(=O)[nH]c3C(F)(F)F)cc2)c1 [Example 99, 5-(4-((5-cyanopyridin-3-yl)methoxy)phenyl)-2-oxo-6-(trifluoromethyl)-1,2-dihydropyridine-3-carboxamide]	10 to 100	100 to 1000
NC(=O)c1cc(-c2ccc(OCC3CCCOC3)cc2)c(C(F)(F)F)[nH]c1=O (stereo not drawn) [Example 102, 2-oxo-5-(4-((tetrahydro-2H-pyran-3-yl)methoxy)phenyl)-6-(trifluoromethyl)-1,2-dihydropyridine-3-carboxamide]	10 to 100	100 to 1000
NC(=O)c1cc(-c2ccc(OCc3cnc4nncn4c3)cc2)c(C(F)(F)F)[nH]c1=O [Example 103, 5-(4-([1,2,4]triazolo[4,3-a]pyrimidin-6-ylmethoxy)phenyl)-2-oxo-6-(trifluoromethyl)-1,2-dihydropyridine-3-carboxamide]	1000 to 5000	25000 to 50000
NC(=O)c1cc(-c2ccc(OCc3cc(Cl)cnc3F)cc2)c(C(F)(F)F)[nH]c1=O [Example 104, 5-(4-((5-chloro-2-fluoropyridin-3-yl)methoxy)phenyl)-2-oxo-6-(trifluoromethyl)-1,2-dihydropyridine-3-carboxamide]	100 to 1000	100 to 1000
NC(=O)c1cc(-c2ccc(OCc3ccc(Cl)cn3)cc2)c(C(F)(F)F)[nH]c1=O [Example 105, 5-(4-((5-chloropyridin-2-yl)methoxy)phenyl)-2-oxo-6-(trifluoromethyl)-1,2-dihydropyridine-3-carboxamide]	100 to 1000	1000 to 5000
COc1cc(COc2ccc(-c3cc(C(N)=O)c(=O)[nH]c3C(F)(F)F)cc2)ccn1 [Example 106, 5-(4-((2-methoxypyridin-4-yl)methoxy)phenyl)-2-oxo-6-(trifluoromethyl)-1,2-dihydropyridine-3-carboxamide]	100 to 1000	1000 to 5000
Cc1noc(C)c1COc1ccc(-c2cc(C(N)=O)c(=O)[nH]c2C(F)(F)F)cc1 [Example 107, 5-(4-((3,5-dimethylisoxazol-4-yl)methoxy)phenyl)-2-oxo-6-(trifluoromethyl)-1,2-dihydropyridine-3-carboxamide]	100 to 1000	1000 to 5000
NC(=O)c1cc(-c2ccc(OCc3cc([N+](=O)[O-])ccc3Cl)cc2)c(C(F)(F)F)[nH]c1=O [Example 108, 5-(4-((2-chloro-5-nitrobenzyl)oxy)phenyl)-2-oxo-6-(trifluoromethyl)-1,2-dihydropyridine-3-carboxamide]	100 to 1000	100 to 1000
Cn1cc(COc2ccc(-c3cc(C(N)=O)c(=O)[nH]c3C(F)(F)F)cc2)c(C(F)(F)F)n1 [Example 109, 5-(4-((1-methyl-3-(trifluoromethyl)-1H-pyrazol-4-yl)methoxy)phenyl)-2-oxo-6-(trifluoromethyl)-1,2-dihydropyridine-3-carboxamide]	1000 to 5000	100 to 1000
NC(=O)c1cc(-c2ccc(OCc3ccsc3)cc2)c(C(F)(F)F)[nH]c1=O [Example 110, 2-oxo-5-(4-(thiophen-3-ylmethoxy)phenyl)-6-(trifluoromethyl)-1,2-dihydropyridine-3-carboxamide]	100 to 1000	1000 to 5000
NC(=O)c1cc(-c2ccc(OCc3ccc(C(F)(F)F)nc3)cc2)c(C(F)(F)F)[nH]c1=O [Example 111, 2-oxo-6-(trifluoromethyl)-5-(4-((8-(trifluoromethyl)pyridin-3-yl)methoxy)phenyl)-1,2-dihydropyridine-3-carboxamide]	100 to 1000	1000 to 5000
NC(=O)c1cc(-c2ccc(OCc3ccc(F)c(F)c3)cc2)c(C(F)(F)F)[nH]c1=O [Example 112, 5-(4-((3,4-difluorobenzyl)oxy)phenyl)-2-oxo-6-(trifluoromethyl)-1,2-dihydropyridine-3-carboxamide]	100 to 1000	10 to 100
COc1c(C)cnc(COc2ccc(-c3cc(C(N)=O)c(=O)[nH]c3C(F)(F)F)cc2)c1C [Example 113, 5-(4-((4-methoxy-3,5-dimethylpyridin-2-yl)methoxy)phenyl)-2-oxo-6-(trifluoromethyl)-1,2-dihydropyridine-3-carboxamide]	1000 to 5000	5000 to 10000
